Source: ChEMBL document CHEMBL1130597, “Design of a high affinity peptidomimetic opioid agonist from peptide pharmacophore models” (Bioorg Med Chem Lett, 1998)

Amino acid sequences for entries named in this document (tags omitted). A change or cut given only in a name is not applied to a line headed by its entry.
UniProt P97266, whole entry: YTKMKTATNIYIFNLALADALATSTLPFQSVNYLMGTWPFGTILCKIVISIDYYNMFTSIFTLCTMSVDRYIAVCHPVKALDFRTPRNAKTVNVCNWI
UniProt P41144: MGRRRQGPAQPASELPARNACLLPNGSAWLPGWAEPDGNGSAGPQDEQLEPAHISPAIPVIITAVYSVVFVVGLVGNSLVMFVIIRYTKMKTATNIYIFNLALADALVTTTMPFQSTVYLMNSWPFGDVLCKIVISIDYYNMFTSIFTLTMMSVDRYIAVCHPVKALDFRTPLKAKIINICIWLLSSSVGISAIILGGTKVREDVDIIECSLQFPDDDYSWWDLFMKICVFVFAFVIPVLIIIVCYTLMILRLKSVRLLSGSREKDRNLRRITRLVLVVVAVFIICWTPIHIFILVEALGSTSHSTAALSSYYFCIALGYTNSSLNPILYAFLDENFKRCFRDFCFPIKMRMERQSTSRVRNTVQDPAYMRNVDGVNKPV

Key:
[1] = target: Mu-type opioid receptor (Cavia porcellus, UniProt P97266); assay type: cell membranes, Brain, Membrane
[2] = target: Kappa-type opioid receptor (Cavia porcellus, UniProt P41144); assay type: cell membranes, Brain, Membrane

## CC1(C)SSC[C@@H](NC(=O)[C@@H](N)Cc2ccc(O)cc2)C(=O)N[C@@H](Cc2ccccc2)C(=O)N[C@@H]1C(N)=O
[1]
  Ki: 7.01 nM
[2]
  Ki: > 10000 nM

## CC1(C)SSC[C@H](NC(=O)[C@@H](N)Cc2ccc(O)cc2)C(=O)N[C@@H](Cc2ccccc2)C(=O)N[C@@H]1C(=O)O
[2]
  Ki: > 1000 nM
